Assay results: the Kinase Knowledgebase extract (Sharma et al. 2016)

The chains behind the UniProt entries cited, without tags or fusion partners. Where a name states a change or a piece, a line headed by the entry shows the natural chain unless it says otherwise.
UniProt O00329: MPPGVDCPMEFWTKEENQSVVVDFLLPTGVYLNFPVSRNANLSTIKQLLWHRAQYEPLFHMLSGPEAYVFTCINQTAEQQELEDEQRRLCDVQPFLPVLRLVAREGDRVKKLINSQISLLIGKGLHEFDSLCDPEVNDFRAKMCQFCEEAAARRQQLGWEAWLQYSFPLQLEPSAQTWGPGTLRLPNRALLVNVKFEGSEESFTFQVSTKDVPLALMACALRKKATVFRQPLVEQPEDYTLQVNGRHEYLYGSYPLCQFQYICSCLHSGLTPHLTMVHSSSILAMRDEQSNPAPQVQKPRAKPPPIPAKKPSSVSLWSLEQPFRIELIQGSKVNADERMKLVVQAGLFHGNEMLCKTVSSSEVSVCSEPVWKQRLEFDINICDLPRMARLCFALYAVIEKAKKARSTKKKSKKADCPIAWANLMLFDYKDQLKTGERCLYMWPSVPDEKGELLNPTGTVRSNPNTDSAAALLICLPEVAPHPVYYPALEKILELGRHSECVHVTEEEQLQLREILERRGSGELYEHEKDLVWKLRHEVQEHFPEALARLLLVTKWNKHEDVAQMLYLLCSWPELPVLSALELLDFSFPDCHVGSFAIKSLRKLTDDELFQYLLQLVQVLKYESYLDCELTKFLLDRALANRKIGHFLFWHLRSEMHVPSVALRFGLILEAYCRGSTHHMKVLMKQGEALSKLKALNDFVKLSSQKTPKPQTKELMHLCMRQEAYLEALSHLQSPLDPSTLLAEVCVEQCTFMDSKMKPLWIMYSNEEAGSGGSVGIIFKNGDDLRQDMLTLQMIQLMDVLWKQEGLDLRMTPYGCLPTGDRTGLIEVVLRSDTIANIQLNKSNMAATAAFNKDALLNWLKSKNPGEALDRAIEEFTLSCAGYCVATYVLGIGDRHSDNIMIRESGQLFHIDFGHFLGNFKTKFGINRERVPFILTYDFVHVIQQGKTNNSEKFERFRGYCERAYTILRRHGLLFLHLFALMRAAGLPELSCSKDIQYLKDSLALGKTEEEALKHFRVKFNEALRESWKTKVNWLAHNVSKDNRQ
UniProt P42336, whole entry, looked up: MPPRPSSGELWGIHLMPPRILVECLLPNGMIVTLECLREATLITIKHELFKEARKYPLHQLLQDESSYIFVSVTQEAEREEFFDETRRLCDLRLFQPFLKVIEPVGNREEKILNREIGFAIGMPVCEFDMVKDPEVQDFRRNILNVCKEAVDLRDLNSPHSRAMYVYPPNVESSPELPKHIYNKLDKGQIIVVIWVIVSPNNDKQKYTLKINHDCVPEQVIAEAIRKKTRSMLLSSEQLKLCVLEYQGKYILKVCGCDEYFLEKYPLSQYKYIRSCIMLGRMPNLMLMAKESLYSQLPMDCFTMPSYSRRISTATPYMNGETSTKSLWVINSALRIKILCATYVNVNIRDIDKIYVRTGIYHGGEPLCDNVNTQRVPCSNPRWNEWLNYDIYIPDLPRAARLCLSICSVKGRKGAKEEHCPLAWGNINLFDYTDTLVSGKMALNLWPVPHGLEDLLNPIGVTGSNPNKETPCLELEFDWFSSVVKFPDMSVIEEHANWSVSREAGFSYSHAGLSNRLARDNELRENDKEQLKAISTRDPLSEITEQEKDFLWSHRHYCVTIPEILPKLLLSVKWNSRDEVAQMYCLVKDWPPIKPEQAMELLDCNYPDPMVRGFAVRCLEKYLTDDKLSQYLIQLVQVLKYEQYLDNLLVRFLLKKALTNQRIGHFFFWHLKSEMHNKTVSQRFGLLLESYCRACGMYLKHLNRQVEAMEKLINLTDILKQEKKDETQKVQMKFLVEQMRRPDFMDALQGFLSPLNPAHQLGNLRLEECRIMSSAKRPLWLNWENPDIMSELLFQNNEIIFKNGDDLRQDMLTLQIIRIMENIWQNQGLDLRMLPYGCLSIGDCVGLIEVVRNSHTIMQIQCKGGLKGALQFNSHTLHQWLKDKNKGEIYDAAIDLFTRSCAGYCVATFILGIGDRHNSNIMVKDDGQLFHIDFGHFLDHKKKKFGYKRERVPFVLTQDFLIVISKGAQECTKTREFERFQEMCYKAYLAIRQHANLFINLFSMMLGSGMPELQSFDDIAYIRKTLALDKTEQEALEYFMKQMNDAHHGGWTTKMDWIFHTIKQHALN
UniProt P42338: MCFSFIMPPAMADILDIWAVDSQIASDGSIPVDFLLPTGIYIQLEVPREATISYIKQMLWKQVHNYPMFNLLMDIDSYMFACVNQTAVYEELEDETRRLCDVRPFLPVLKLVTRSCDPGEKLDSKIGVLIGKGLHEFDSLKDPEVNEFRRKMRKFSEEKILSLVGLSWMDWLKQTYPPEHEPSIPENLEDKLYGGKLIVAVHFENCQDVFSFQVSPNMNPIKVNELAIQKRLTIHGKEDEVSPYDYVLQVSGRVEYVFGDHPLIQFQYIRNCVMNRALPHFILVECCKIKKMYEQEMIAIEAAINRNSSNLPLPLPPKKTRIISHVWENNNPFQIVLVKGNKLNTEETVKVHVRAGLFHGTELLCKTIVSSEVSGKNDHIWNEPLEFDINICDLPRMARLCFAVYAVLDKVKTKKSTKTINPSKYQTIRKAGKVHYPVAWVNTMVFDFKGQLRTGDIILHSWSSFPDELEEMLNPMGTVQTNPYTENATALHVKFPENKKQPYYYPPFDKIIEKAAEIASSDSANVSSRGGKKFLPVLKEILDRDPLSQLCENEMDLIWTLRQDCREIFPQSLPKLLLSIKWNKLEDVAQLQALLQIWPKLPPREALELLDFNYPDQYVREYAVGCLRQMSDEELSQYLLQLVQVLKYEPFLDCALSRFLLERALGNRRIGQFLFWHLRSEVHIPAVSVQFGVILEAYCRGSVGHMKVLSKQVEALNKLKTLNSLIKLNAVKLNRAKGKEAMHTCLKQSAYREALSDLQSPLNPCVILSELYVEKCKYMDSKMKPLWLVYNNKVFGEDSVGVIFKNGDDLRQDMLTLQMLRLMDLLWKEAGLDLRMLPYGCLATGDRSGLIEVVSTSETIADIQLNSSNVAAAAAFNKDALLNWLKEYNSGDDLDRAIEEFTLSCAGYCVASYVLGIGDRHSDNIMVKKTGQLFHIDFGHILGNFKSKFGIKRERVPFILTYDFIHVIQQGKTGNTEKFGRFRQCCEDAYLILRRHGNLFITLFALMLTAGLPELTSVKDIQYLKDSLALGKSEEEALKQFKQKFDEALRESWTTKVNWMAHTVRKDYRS
UniProt P48736: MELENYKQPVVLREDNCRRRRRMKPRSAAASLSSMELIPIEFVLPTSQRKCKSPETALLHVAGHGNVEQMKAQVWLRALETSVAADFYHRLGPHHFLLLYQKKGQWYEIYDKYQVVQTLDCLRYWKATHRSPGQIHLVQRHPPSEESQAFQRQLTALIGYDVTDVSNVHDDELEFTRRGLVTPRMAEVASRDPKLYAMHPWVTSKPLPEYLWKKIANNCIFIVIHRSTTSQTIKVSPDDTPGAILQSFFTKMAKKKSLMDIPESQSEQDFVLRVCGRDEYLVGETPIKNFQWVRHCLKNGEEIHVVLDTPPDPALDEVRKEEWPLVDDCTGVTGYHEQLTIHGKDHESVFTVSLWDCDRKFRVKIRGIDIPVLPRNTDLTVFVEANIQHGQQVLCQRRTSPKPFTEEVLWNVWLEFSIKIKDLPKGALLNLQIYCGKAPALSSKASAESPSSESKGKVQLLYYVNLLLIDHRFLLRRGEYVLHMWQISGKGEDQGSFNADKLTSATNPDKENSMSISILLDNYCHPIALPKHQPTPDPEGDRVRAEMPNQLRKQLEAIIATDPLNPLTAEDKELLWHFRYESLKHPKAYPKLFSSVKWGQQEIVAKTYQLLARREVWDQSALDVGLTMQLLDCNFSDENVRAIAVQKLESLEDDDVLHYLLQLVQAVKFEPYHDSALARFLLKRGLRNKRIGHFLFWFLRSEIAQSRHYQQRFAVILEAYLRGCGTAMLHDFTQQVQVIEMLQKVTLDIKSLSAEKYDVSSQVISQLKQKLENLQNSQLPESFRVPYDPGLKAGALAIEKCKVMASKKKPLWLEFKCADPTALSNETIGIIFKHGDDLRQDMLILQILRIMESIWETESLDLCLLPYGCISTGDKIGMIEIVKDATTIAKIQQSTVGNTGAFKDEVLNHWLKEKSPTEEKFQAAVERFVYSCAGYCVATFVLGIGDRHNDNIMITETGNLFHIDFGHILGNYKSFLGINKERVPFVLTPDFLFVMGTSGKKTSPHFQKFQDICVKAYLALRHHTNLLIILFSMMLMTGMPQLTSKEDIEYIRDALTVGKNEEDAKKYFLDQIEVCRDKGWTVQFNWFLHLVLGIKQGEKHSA

Legend:
Test in all cases: Enzyme Assay
PIK3CD (Human) = PIK3CD (Human) (UniProt O00329)
PIK3CA (human) = PIK3CA (human) (UniProt P42336)
PIK3CB (Human) = PIK3CB (Human) (UniProt P42338)
PIK3CG (human) = PIK3CG (human) (UniProt P48736)

IC50 (PIK3CD (Human)): 980 nM
IC50 (PIK3CA (human)): 75 nM
IC50 (PIK3CB (Human)): 5500 nM
IC50 (PIK3CG (human)): 2400 nM
Compound: NC(=O)[C@H]1CCCN1C(=O)Nc1nc2ccc(-c3cnc(N)c(C(F)(F)F)c3)cc2s1
